Paper PMC5384220, “Highly selective inhibition of histone demethylases by de novo macrocyclic peptides” (Nature Communications, 2017)
Where “and” joins values, the source holds several entries; their conditions need not be identical. Equal entries are not always repeated.

The chains behind the UniProt entries cited, without tags or fusion partners. Where a name states a change or a piece, a line headed by the entry shows the natural chain unless it says otherwise.
UniProt Q9NWT6: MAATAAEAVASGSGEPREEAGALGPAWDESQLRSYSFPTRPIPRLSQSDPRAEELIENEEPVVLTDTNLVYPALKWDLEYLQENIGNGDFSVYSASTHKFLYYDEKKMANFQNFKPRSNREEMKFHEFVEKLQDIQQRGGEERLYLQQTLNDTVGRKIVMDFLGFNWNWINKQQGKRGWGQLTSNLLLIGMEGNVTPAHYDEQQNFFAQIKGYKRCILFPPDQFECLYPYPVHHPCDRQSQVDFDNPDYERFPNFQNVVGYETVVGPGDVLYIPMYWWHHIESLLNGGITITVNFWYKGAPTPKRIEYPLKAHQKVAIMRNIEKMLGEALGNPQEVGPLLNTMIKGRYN

How the values were obtained:
[1] = tested on: H3K9me3/H3K36me3 in HeLa cells; details: 72 h treatment, nuclei count
KDM4A = molecular target: T1, KDM4A (Homo sapiens, UniProt O75164); assay: AlphaScreen demethylase activity assay, KDM4A; type: biochemical; details: read-out: IC50 KDM4A, KDM4A 1-359
T1 construct: KDM4A 1-359 E.coli; Hexa-His (N); made in house; host or cells: E. coli
T1 sequence (O75164 1-359): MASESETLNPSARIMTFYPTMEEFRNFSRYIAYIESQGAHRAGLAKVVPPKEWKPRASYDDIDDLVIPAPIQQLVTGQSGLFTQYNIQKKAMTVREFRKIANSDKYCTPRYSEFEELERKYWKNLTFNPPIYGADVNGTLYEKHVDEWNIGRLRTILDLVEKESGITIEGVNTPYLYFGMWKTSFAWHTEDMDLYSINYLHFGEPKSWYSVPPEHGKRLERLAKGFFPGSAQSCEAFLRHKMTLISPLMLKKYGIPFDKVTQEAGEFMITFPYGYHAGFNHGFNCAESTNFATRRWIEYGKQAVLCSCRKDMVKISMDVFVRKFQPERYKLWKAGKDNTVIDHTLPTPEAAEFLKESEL
Procedure: (§1) IC50 values for KDM2–6 were measured using an AlphaScreen assay as described. The appropriate KDM (5 μl) was pre-incubated with an inhibitor (0.1 μl in DMSO) or DMSO for 15 min before the addition of 5 μl mixture of biotinylated peptide substrates, 2OG, ferrous ammonium sulfate (1–10 μM final) and ascorbate (100 μM final) to initiate the demethylation reaction. The reaction was quenched with 5 μl of 30 mM EDTA at predetermined reaction times for each enzyme (initial rate). Demethylated product was detected by addition of 5 μl of AlphaScreen donor and acceptor beads (AlphaScreen General IgG Detection Kit, 0.02 mg ml^−1 final each) pre-incubated with antibody. The plates were read after 1 h incubation in a BMG Labtech Pherastar FS plate reader. Data were normalized to a no enzyme control and IC50 values were calculated using nonlinear regression curve fits using GraphPad Prism. Assay buffer (50 mM HEPES pH 7.5, BSA (0.1% w/v) and Tween-20 (0.01% v/v)) was used throughout, except for dilution of stock ferrous ammonium sulfate solutions where water was used. The enzyme, substrate and antibody concentrations used are described in Supplementary Table 3. A fluorescence-based LSD1 inhibitor screening assay kit (Cayman, 700120) was used for KDM1/LSD1 assay. Assays for prolyl hydroxylase domain 2 and factor inhibiting HIF using matrix-assisted laser desorption/ionization–time of flight MS were performed as previously described. Prism 5.0 (GraphPad) was used to generate and to fit dose–response curves. IC50 values were determined by plotting percentage inhibition versus compound concentration relative to positive (vehicle) and negative (no enzyme) controls, using normalized dose–response (variable slope) fit. The reported values are the mean of multiple experiments (n≥3). The formaldehyde dehydrogenase coupled KDM assay was used to determine the mode of inhibition, using 0.5 μM His-KDM4A1–359. Prism 5.0 (GraphPad) was used to fit in mix-mode inhibition, to determine the kinetic parameters. Binding constants for CPs and H3(1–15)K9me3 were measured using biolayer interferometry (OctetRed 384, ForteBio) in buffer (50 mM HEPES (pH 7.5), 150 mM NaCl, 10 μM ammonium iron(II) sulphate). His-KDM4A1–359-Bio (70 nM) was immobilized onto super streptavidin biosensor and subjected to different peptide concentrations in buffer. Data analysis was performed using ForteBio Data Aalysis (v6.4).
(§2) Construct Expression [E] / nM [2OG] / µM [Fe(II)] / µM Peptide / nM Peptide sequence Antibody Source […]
(§3) Supplementary Table 3. AlphaScreen assay parameters for 2OG oxygenases used for this study. The table was dapted from 10. Assays were performed at 2OG concentration near the 2OG Km values determined experimentally.11 All enzymes were expressed and purified as described.10-12

KDM3A = molecular target: T2, KDM3A (Homo sapiens, UniProt Q9Y4C1); assay: AlphaScreen demethylase activity assay, KDM3A; type: biochemical; details: read-out: IC50 KDM3A
T2 construct: KDM3A 515-1317 Baculovirus; made in house
T2 sequence (Q9Y4C1 515-1317): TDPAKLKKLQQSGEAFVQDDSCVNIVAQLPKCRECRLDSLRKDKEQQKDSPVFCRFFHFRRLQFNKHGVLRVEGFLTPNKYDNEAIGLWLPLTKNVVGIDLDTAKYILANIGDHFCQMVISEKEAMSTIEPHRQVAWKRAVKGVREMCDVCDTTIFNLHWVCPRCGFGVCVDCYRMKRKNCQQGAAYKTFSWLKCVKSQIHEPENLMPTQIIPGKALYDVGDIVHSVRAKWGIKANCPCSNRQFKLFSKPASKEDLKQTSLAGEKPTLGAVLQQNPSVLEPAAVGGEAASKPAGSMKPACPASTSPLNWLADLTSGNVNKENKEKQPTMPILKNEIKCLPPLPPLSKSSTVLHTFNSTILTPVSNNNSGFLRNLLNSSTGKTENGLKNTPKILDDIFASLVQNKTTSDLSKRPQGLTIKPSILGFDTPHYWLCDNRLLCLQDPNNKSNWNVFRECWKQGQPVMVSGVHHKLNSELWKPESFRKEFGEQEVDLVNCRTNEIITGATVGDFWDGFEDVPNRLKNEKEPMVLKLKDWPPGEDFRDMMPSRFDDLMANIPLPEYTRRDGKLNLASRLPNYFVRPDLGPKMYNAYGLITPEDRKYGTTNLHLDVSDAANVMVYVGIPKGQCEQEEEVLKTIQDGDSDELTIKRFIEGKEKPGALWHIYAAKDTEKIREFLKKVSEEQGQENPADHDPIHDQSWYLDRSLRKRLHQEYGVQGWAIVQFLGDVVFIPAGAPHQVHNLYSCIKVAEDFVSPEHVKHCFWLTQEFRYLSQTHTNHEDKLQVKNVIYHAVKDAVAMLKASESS
Procedure: as §1, §2, §3

KDM1A/LSD1 = molecular target: T3, KDM1A/LSD1 (Homo sapiens, UniProt O60341); assay: Fluorescence-based LSD1 inhibitor screening assay; type: biochemical; details: read-out: IC50 KDM1A
T3 construct: purchased Cayman 700120
Procedure: as §1, with “Prism 5.0 (GraphPad) was used to fit in mix-mode inhibition, to determine the kinetic parameters.” left out, “His-KDM4A1–359-Bio (70 nM) was immobilized onto super streptavidin biosensor and subjected to different peptide concentrations in buffer. Data analysis was performed using ForteBio Data Aalysis (v6.4).” left out

FIH = FIH (Homo sapiens, UniProt Q9NWT6); assay: MALDI-TOF MS assay, FIH; type: biochemical; details: read-out: IC50 FIH
Procedure: as §1, with “Prism 5.0 (GraphPad) was used to fit in mix-mode inhibition, to determine the kinetic parameters.” left out, “His-KDM4A1–359-Bio (70 nM) was immobilized onto super streptavidin biosensor and subjected to different peptide concentrations in buffer. Data analysis was performed using ForteBio Data Aalysis (v6.4).” left out

Substance	Concentration giving significant reduction in cell numbers [1] [µM]	IC50 (KDM4A)	IC50 (KDM3A) [µM]	IC50 (KDM1A/LSD1) [µM]	IC50 (FIH) [µM]
DY(meV)YNTRSDAWRW(4FF)P(meC) [CP2.3]	> 10	0.11 µM			
DY(meV)YNTRSDAWRWY(meT)(meC) [CP2.2]	> 10	0.1 µM	7		
DYVYNTRSDAWRWYT(meC) [CP2.1]	> 10	0.029 µM			
DYVYNTRSGWRWYTC [CP2]		< 0.05 µM and 0.042 µM	> 10	> 10	> 1000
LYLKSRRSGLTWIPC [CP4]			9.9	> 10	> 1000
LYSKYTQSGVRWVC [CP5]		< 0.5 µM and 0.313 µM	> 10	> 10	> 1000
